## CycPeptMPDB entries from one study

Data: CycPeptMPDB; original report Kelly et al. 2021, doi:10.1021/jacs.0c06115.

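The data file gives no further conditions (lipid, pH, time, direction or concentration), and values from different papers need not be comparable. Other peptides of the study may be missing here. Entries at the database's floor value (log10 P of -10) are not listed.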

PAMPA is the parallel artificial membrane permeability assay, which has no cells and reads passive diffusion. P is given in units of 10^-6 cm/s (from log10 values with two decimals); larger means faster passage.

* CC(=O)N1CCC[C@H]1C(=O)N[C@@H]1C(=O)N[C@H](CC(C)C)C(=O)N[C@@H](CC(C)C)C(=O)N[C@@H](CC(C)C)C(=O)N(C)[C@H](CC(C)C)C(=O)N[C@@H](C)C(=O)N[C@@H](CC(C)C)C(=O)N2CCC[C@@H]2C(=O)O[C@@H]1C: PAMPA 1 × 10^-6 cm/s
* CC(=O)N1CCC[C@H]1C(=O)N[C@@H]1C(=O)N(C)[C@H](CC(C)C)C(=O)N[C@@H](CC(C)C)C(=O)N[C@H](CC(C)C)C(=O)N[C@H](CC(C)C)C(=O)N(C)[C@H](C)C(=O)N[C@@H](CC(C)C)C(=O)N2CCC[C@@H]2C(=O)O[C@@H]1C: PAMPA 0.93 × 10^-6 cm/s
* CC(=O)N1CCC[C@H]1C(=O)N(C)[C@@H](CC(C)C)C(=O)N[C@@H]1C(=O)N[C@H](CC(C)C)C(=O)N[C@H](CC(C)C)C(=O)N(C)[C@H](CC(C)C)C(=O)N(C)[C@@H](C)C(=O)N[C@@H](CC(C)C)C(=O)N2CCC[C@@H]2C(=O)O[C@@H]1C: PAMPA 2.1 × 10^-6 cm/s
* CC(=O)N1CCC[C@H]1C(=O)N(C)[C@@H](CC(C)C)C(=O)N[C@@H]1C(=O)N[C@@H](CC(C)C)C(=O)N[C@@H](CC(C)C)C(=O)N(C)[C@@H](CC(C)C)C(=O)N(C)[C@H](C)C(=O)N[C@H](CC(C)C)C(=O)N2CCC[C@H]2C(=O)O[C@@H]1C: PAMPA 0.51 × 10^-6 cm/s
* CC(=O)N1CCC[C@H]1C(=O)N(C)[C@H](CC(C)C)C(=O)N[C@@H]1C(=O)N[C@H](CC(C)C)C(=O)N[C@H](CC(C)C)C(=O)N[C@@H](CC(C)C)C(=O)N[C@@H](C)C(=O)N[C@H](CC(C)C)C(=O)N2CCC[C@H]2C(=O)O[C@@H]1C: PAMPA 0.27 × 10^-6 cm/s
* CC(=O)N1CCC[C@H]1C(=O)N[C@@H]1C(=O)N[C@H](CC(C)C)C(=O)N[C@H](CC(C)C)C(=O)N[C@@H](CC(C)C)C(=O)N(C)[C@H](CC(C)C)C(=O)N(C)[C@@H](C)C(=O)N[C@@H](CC(C)C)C(=O)N2CCC[C@@H]2C(=O)O[C@@H]1C: PAMPA 1.3 × 10^-6 cm/s
* CC(=O)N1CCC[C@@H]1C(=O)N(C)[C@@H](CC(C)C)C(=O)N[C@@H]1C(=O)N(C)[C@@H](CC(C)C)C(=O)N[C@H](CC(C)C)C(=O)N(C)[C@@H](CC(C)C)C(=O)N(C)[C@@H](C)C(=O)N[C@@H](CC(C)C)C(=O)N2CCC[C@H]2C(=O)O[C@@H]1C: PAMPA 2.5 × 10^-6 cm/s
* CC(=O)N1CCC[C@@H]1C(=O)N(C)[C@H](CC(C)C)C(=O)N[C@@H]1C(=O)N[C@@H](CC(C)C)C(=O)N[C@@H](CC(C)C)C(=O)N(C)[C@@H](CC(C)C)C(=O)N(C)[C@H](C)C(=O)N[C@@H](CC(C)C)C(=O)N2CCC[C@@H]2C(=O)O[C@@H]1C: PAMPA 0.39 × 10^-6 cm/s
* CC(=O)N1CCC[C@@H]1C(=O)N(C)[C@@H](CC(C)C)C(=O)N[C@@H]1C(=O)N[C@H](CC(C)C)C(=O)N[C@H](CC(C)C)C(=O)N(C)[C@H](CC(C)C)C(=O)N(C)[C@@H](C)C(=O)N[C@@H](CC(C)C)C(=O)N2CCC[C@H]2C(=O)O[C@@H]1C: PAMPA 1.5 × 10^-6 cm/s
* CC(=O)N1CCC[C@H]1C(=O)N(C)[C@@H](CC(C)C)C(=O)N[C@@H]1C(=O)N[C@@H](CC(C)C)C(=O)N[C@H](CC(C)C)C(=O)N[C@H](CC(C)C)C(=O)N[C@@H](C)C(=O)N[C@H](CC(C)C)C(=O)N2CCC[C@@H]2C(=O)O[C@@H]1C: PAMPA 0.051 × 10^-6 cm/s
* CC(=O)N1CCC[C@H]1C(=O)N[C@@H]1C(=O)N[C@H](CC(C)C)C(=O)N(C)[C@H](CC(C)C)C(=O)N[C@@H](CC(C)C)C(=O)N(C)[C@@H](CC(C)C)C(=O)N(C)[C@@H](C)C(=O)N[C@@H](CC(C)C)C(=O)N2CCC[C@@H]2C(=O)O[C@@H]1C: PAMPA 9.8 × 10^-6 cm/s
* CC(=O)N1CCC[C@H]1C(=O)N[C@@H]1C(=O)N(C)[C@H](CC(C)C)C(=O)N[C@H](CC(C)C)C(=O)N[C@@H](CC(C)C)C(=O)N(C)[C@H](CC(C)C)C(=O)N(C)[C@@H](C)C(=O)N[C@@H](CC(C)C)C(=O)N2CCC[C@@H]2C(=O)O[C@@H]1C: PAMPA 2 × 10^-6 cm/s
* CC(=O)N1CCC[C@H]1C(=O)N(C)[C@@H](CC(C)C)C(=O)N[C@@H]1C(=O)N[C@H](CC(C)C)C(=O)N[C@@H](CC(C)C)C(=O)N[C@H](CC(C)C)C(=O)N[C@@H](C)C(=O)N[C@H](CC(C)C)C(=O)N2CCC[C@H]2C(=O)O[C@@H]1C: PAMPA 0.21 × 10^-6 cm/s
* CC(=O)N1CCC[C@@H]1C(=O)N(C)[C@@H](CC(C)C)C(=O)N[C@@H]1C(=O)N[C@H](CC(C)C)C(=O)N[C@@H](CC(C)C)C(=O)N(C)[C@H](CC(C)C)C(=O)N(C)[C@H](C)C(=O)N[C@@H](CC(C)C)C(=O)N2CCC[C@@H]2C(=O)O[C@@H]1C: PAMPA 2.7 × 10^-6 cm/s
* CC(=O)N1CCC[C@@H]1C(=O)N(C)[C@H](CC(C)C)C(=O)N[C@@H]1C(=O)N[C@H](CC(C)C)C(=O)N(C)[C@H](CC(C)C)C(=O)N[C@H](CC(C)C)C(=O)N[C@H](C)C(=O)N[C@@H](CC(C)C)C(=O)N2CCC[C@@H]2C(=O)O[C@@H]1C: PAMPA 0.14 × 10^-6 cm/s
* CC(=O)N1CCC[C@H]1C(=O)N(C)[C@@H](CC(C)C)C(=O)N[C@@H]1C(=O)N[C@@H](CC(C)C)C(=O)N(C)[C@@H](CC(C)C)C(=O)N[C@@H](CC(C)C)C(=O)N(C)[C@@H](C)C(=O)N[C@H](CC(C)C)C(=O)N2CCC[C@H]2C(=O)O[C@@H]1C: PAMPA 1 × 10^-6 cm/s
* CC(=O)N1CCC[C@@H]1C(=O)N(C)[C@@H](CC(C)C)C(=O)N[C@@H]1C(=O)N[C@H](CC(C)C)C(=O)N(C)[C@H](CC(C)C)C(=O)N(C)[C@H](CC(C)C)C(=O)N[C@@H](C)C(=O)N[C@@H](CC(C)C)C(=O)N2CCC[C@H]2C(=O)O[C@@H]1C: PAMPA 0.18 × 10^-6 cm/s
* CC(=O)N1CCC[C@@H]1C(=O)N(C)[C@@H](CC(C)C)C(=O)N[C@@H]1C(=O)N[C@@H](CC(C)C)C(=O)N[C@@H](CC(C)C)C(=O)N[C@@H](CC(C)C)C(=O)N[C@@H](C)C(=O)N[C@H](CC(C)C)C(=O)N2CCC[C@@H]2C(=O)O[C@@H]1C: PAMPA 0.021 × 10^-6 cm/s
* CC(=O)N1CCC[C@H]1C(=O)N(C)[C@H](CC(C)C)C(=O)N[C@@H]1C(=O)N[C@@H](CC(C)C)C(=O)N[C@H](CC(C)C)C(=O)N(C)[C@H](CC(C)C)C(=O)N(C)[C@H](C)C(=O)N[C@@H](CC(C)C)C(=O)N2CCC[C@@H]2C(=O)O[C@@H]1C: PAMPA 0.25 × 10^-6 cm/s
* CC(=O)N1CCC[C@@H]1C(=O)N(C)[C@@H](CC(C)C)C(=O)N[C@@H]1C(=O)N[C@H](CC(C)C)C(=O)N(C)[C@@H](CC(C)C)C(=O)N(C)[C@@H](CC(C)C)C(=O)N(C)[C@H](C)C(=O)N[C@H](CC(C)C)C(=O)N2CCC[C@H]2C(=O)O[C@@H]1C: PAMPA 3 × 10^-6 cm/s
* CC(=O)N1CCC[C@H]1C(=O)N[C@@H]1C(=O)N[C@H](CC(C)C)C(=O)N[C@H](CC(C)C)C(=O)N(C)[C@@H](CC(C)C)C(=O)N[C@@H](CC(C)C)C(=O)N(C)[C@H](C)C(=O)N[C@@H](CC(C)C)C(=O)N2CCC[C@@H]2C(=O)O[C@@H]1C: PAMPA 2.2 × 10^-6 cm/s
* CC(=O)N[C@@H]1C(=O)N2CCC[C@H]2C(=O)N(C)[C@H](CC(C)C)C(=O)N[C@@H](CC(C)C)C(=O)N[C@@H](CC(C)C)C(=O)N[C@H](CC(C)C)C(=O)N[C@@H](C)C(=O)N[C@@H](CC(C)C)C(=O)N2CCC[C@@H]2C(=O)O[C@@H]1C: PAMPA 0.072 × 10^-6 cm/s
* CC(=O)N1CCC[C@@H]1C(=O)N(C)[C@@H](CC(C)C)C(=O)N[C@@H]1C(=O)N[C@@H](CC(C)C)C(=O)N(C)[C@@H](CC(C)C)C(=O)N[C@H](CC(C)C)C(=O)N(C)[C@H](C)C(=O)N[C@@H](CC(C)C)C(=O)N2CCC[C@@H]2C(=O)O[C@@H]1C: PAMPA 6.9 × 10^-6 cm/s

2 of these entries, quoted again:

| structure (SMILES) | PAMPA (10^-6 cm/s) |
|---|---|
| CC(=O)N1CCC[C@@H]1C(=O)N(C)[C@@H](CC(C)C)C(=O)N[C@@H]1C(=O)N[C@@H](CC(C)C)C(=O)N[C@@H](CC(C)C)C(=O)N[C@@H](CC(C)C)C(=O)N[C@@H](C)C(=O)N[C@H](CC(C)C)C(=O)N2CCC[C@@H]2C(=O)O[C@@H]1C | 0.021 |
| CC(=O)N1CCC[C@@H]1C(=O)N(C)[C@@H](CC(C)C)C(=O)N[C@@H]1C(=O)N[C@H](CC(C)C)C(=O)N(C)[C@H](CC(C)C)C(=O)N(C)[C@H](CC(C)C)C(=O)N[C@@H](C)C(=O)N[C@@H](CC(C)C)C(=O)N2CCC[C@H]2C(=O)O[C@@H]1C | 0.18 |